Target: human neuropeptide Y5 receptor (Homo sapiens, UniProt Q15761)
Assay: NPY5 HTS centrifugation assay: competition with 125I-PYY for binding to membranes of NPY5-transfected HEK-293 cells
Details: read-out: IC50 hNPY5; inhibition of 125I-PYY binding; values in nM
Description: NPY5 HTS Centrifugation Assay
The compounds described in this invention were evaluated for binding to the human neuropeptide Y5 receptor.
The human NPY5 receptor cDNA (Genbank Accession number U66275) was inserted into the vector pClneo (Invitrogen) and transfected into human embryonic kidney cells (HEK-293) via Calcium phosphate method (Cullen 1987). Stably transfected cells were selected with G-418 (600 ug/mL). Stably transfected cells served as the source for the membranes for the NPY5 receptor binding assay.
NPY5-transfected HEK293 cells were grown to confluence in 150 cm^2 culture dishes. Cells were washed once with phosphate-buffered saline (Gibco Cat# 14040-133). […]
A competition binding assay, known to those skilled in the art, was used in which the test compounds (aminopyrazoles of formula (I) compete with ^1251I-PYY for binding to cell membranes. In simple terms, less ^125I-PYY bound to the membranes implies that the test compound is a good inhibitor (competitor). Bound ^1251I-PYY is determined by centrifugation the membranes, aspirating supernatant, washing away residual ^125I-PYY and subsequently counting the bound sample in a γ-counter. […]
Compounds to be tested were prepared as 10× stocks in binding buffer and added first to assay tubes (RIA vials, Sarstedt). […] Vials were put in carrier polypropylene 12×75 tube and counted in gamma counter (Packard). […]

The chains behind the UniProt entries cited, without tags or fusion partners.
UniProt Q15761, whole entry: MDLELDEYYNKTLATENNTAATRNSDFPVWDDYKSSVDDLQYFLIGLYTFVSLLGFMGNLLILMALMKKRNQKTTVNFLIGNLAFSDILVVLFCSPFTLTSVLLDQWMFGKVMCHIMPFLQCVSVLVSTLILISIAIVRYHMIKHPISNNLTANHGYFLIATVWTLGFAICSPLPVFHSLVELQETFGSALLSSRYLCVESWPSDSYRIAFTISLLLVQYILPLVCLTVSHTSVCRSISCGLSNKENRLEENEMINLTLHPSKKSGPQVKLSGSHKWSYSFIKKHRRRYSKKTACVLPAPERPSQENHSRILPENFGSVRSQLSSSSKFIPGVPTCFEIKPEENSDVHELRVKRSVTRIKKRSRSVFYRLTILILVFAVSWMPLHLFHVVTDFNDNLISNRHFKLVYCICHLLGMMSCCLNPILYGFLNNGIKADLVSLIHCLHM

Nc1cc(-c2ccc(CNS(=O)(=O)c3ccccc3)cc2)nn1-c1cccc(C(F)(F)F)c1
IC50: 114 nM
